Test: S/D stability study (TnBP and PS 80 in the S/D buffer)
Assay type: physicochemical

CCCCOP(=O)(OCCCC)OCCCC
degradation of TnBP in storage conditions (5 weeks, room temperature, protected from light): no degradation
TnBP concentration (T0 (Preparation date), S/D buffer): 0.3%
TnBP concentration (T5 (After 5 weeks), room temperature, protected from light): 0.3%
